# scFv variants of Ab-95 (light chain) against a SARS-CoV-2 spike peptide

Values reported by Engelhart et al. 2022, doi:10.1038/s41597-022-01779-4 (FLAb copy).

The target is the same throughout: PDVDLGDISGINAS, from the HR2 region of SARS-CoV-2 spike.

Each scFv is VH, a (GGGGS)3 linker, VL, as in the parent Ab-95, and differs from it in the CDRs of the light chain only.
VH: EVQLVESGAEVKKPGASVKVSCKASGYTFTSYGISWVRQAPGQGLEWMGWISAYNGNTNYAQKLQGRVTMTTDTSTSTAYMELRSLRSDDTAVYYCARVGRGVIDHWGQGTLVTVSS
VL: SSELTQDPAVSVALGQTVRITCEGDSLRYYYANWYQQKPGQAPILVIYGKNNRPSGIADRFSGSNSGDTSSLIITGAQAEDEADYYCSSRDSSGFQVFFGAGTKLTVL

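The parent was found by panning a naive human phage display library on the peptide. Variants in AAYL52 differ from the parent at up to three CDR positions; double and triple changes were sampled at random. The scFvs were displayed on barcoded MATa yeast, the peptide on MATalpha yeast. The frequency of each diploid, read from paired DNA barcodes, reflects how well the two displayed proteins bind. Scores were corrected for input abundance and mapped to Kd with protein pairs of known affinity run in the same pool. Each pool was mated in three replicate cultures.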

Substitutions are numbered in sequence along the VL above, starting at 1 (not Kabat). Numbers give log10(Kd / nM), so 0 is 1 nM and 3 is 1 µM. Smaller is tighter. A mean of the replicates is given; it leaves out those without a signal. An entry "ND" has no value in the source: the pair was not observed among the diploids in that replicate. This suggests poor binding but is not conclusive. Three control strains display no target. For library AAYL52, 28% of the pairings with them gave a signal, with a median of 3.91 and one signal in twenty below 2.90, so weak values seen in few replicates may be background. For each scFv, signals with the empty controls are counted beside the result, with their mean in brackets.

changes	log10 Kd (nM) by replicate	mean, log10 nM	control signals
K50S S93K Q96N	3.33 / 3.00 / 2.49	2.94	2 of 9 (2.91)
Y29N A32P F98Y	1.65 / 1.45 / 1.21	1.43	3 of 9 (3.76)
S26Y N33R N51Y	ND / 3.28 / 3.74	3.51	1 of 9 (4.04)
A32I S55K F95P	2.89 / 3.91 / ND	3.40	5 of 9 (3.70)
K50R P54C S93V	5.59 / 4.36 / 3.29	4.41	3 of 9 (4.14)
A32E R53F Q96Y	5.09 / ND / 4.13	4.61	4 of 9 (3.76)
D25P Y31N S88G	1.66 / 1.75 / 1.34	1.58	1 of 9 (4.89)
D91I S93T F95W	2.46 / 2.45 / 1.99	2.30	2 of 9 (3.98)
S55D S88E F98T	4.33 / 3.45 / 3.10	3.63	4 of 9 (3.94)
S26C N51I F95I	ND / ND / ND	ND	5 of 9 (4.10)
D25S S88A D91V	2.28 / 1.88 / 1.95	2.04	4 of 9 (3.82)
L27W N33F V97G	4.05 / ND / ND	4.05	4 of 9 (3.98)
G24F N51S R90G	ND / 4.22 / 4.30	4.26	4 of 9 (4.52)
Y31H K50S R90L	4.42 / 5.12 / ND	4.77	5 of 9 (3.82)
Y29S A32Y S93K	3.41 / 3.12 / ND	3.26	2 of 9 (4.00)
E23M S89N	3.27 / 3.19 / 3.08	3.18	8 of 9 (4.16)
D25E Y31M S55N	2.85 / 1.50 / ND	2.18	0 of 9
E23F G24I Q96V	3.36 / 3.56 / 3.37	3.43	3 of 9 (3.68)
A32C S88N V97Y	2.46 / 3.50 / 3.71	3.22	0 of 9
D25V S55R S88T	ND / ND / ND	ND	1 of 9 (3.05)
E23K	1.74 / 1.61 / 1.16	1.50	4 of 9 (4.37)
Y30N F95I	1.09 / 1.38 / 0.56	1.01	5 of 9 (3.79)
R28I Y31R K50R	3.32 / 2.86 / 3.23	3.14	4 of 9 (3.59)
A32T Q96W	2.58 / 2.49 / 3.05	2.71	0 of 9
G24A R90A S93C	3.52 / 3.28 / 2.77	3.19	2 of 9 (4.22)
K50H R53Y S89E	ND / ND / ND	ND	0 of 9
K50S D91T V97D	3.48 / 2.59 / 2.62	2.90	4 of 9 (3.90)
R28G N33S G94A	4.19 / 3.13 / ND	3.66	6 of 9 (4.14)
P54W S55Y S93E	ND / 2.68 / 3.95	3.32	0 of 9
L27M N51L G94N	4.41 / 3.38 / ND	3.89	4 of 9 (3.82)
L27Q S89K G94L	3.30 / 5.44 / ND	4.37	4 of 9 (3.70)
L27Y	2.22 / 1.96 / 2.16	2.12	4 of 9 (3.57)
E23K S26N R53S	ND / 2.88 / ND	2.88	0 of 9
Y30W P54N S88K	3.07 / 3.19 / 3.99	3.42	2 of 9 (5.09)
G24I D25W S92L	5.05 / ND / 3.25	4.15	2 of 9 (3.68)
A32D K50Y N52Y	3.52 / ND / ND	3.52	7 of 9 (4.28)
D25A A32L F98D	4.28 / ND / ND	4.28	2 of 9 (3.22)
Y29C N51K Q96E	3.54 / 3.88 / 3.23	3.55	3 of 9 (4.40)
S26Y S92L Q96D	ND / 4.57 / 3.93	4.25	2 of 9 (4.73)
D25N S89Y S93G	1.43 / 1.59 / 1.81	1.61	0 of 9
L27Q Y29W A32G	2.31 / 2.21 / 2.64	2.39	2 of 9 (4.74)
Y30E Y31E S88P	ND / 3.65 / 3.91	3.78	4 of 9 (3.93)

For reference, 3 entries of the list once more:

changes	log10 Kd (nM) by replicate	mean, log10 nM	control signals
G24I D25W S92L	5.05 / ND / 3.25	4.15	2 of 9 (3.68)
Y30E Y31E S88P	ND / 3.65 / 3.91	3.78	4 of 9 (3.93)
A32D K50Y N52Y	3.52 / ND / ND	3.52	7 of 9 (4.28)